Results taken from PubChem BioAssay (Tox21).
Only a part is listed here, and it is no random draw. Active and inactive are the calls of the source. Calls come from the whole dose curve.

Protein sequences, listed by entry. Tags and fused reporters are not part of them. Lines headed by an entry give the natural chain unless they say otherwise; changes in a name come on top.
UniProt P30968: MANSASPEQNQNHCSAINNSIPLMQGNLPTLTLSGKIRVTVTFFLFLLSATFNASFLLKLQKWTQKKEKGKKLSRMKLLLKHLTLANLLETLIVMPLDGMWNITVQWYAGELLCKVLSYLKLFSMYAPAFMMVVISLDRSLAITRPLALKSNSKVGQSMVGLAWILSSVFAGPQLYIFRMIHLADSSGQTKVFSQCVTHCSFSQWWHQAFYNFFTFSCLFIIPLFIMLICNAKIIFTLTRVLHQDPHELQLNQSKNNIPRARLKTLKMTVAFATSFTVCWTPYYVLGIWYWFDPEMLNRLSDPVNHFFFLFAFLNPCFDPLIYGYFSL

Biological target: Gonadotropin-releasing hormone receptor (Homo sapiens) (UniProt P30968)
Assay: Human gonadotropin-releasing hormone receptor (GnRHR) small molecule agonists, calcium flux assay in GnRHR-HEK293 cells (AID 1920063); note: nearly all actives have a fitted effect of over 35% in size
Settings: calcium flux fluorescence, agonist mode; series mostly up to 57.6 µM; activity change: at the top concentration
From the text: National Center for Advancing Translational Sciences [NCATS]
Division of Preclinical Innovation [DPI]
U.S. Environmental Protection Agency [EPA]
National Institutes of Environmental Health Sciences [NIEHS]
National Toxicology Program [NTP]
U.S. Food and Drug Administration [FDA]
Gonadotropin-releasing hormone receptor (GnRHR) is a G-protein-coupled receptor (GPCR) and acts (through phospholipase C) to increase intracellular inositol trisphosphate and then release intracellular calcium stores. Cell-based GnRHR-Hek293 calcium influx assay is using HEK293 cells that have been genetically engineered to express the human GnRHR, which activity can be measured by calcium signaling. A compound/drug can activate (agonist) GnRHR that can be monitored by levels of intracellular calcium.
GnRHR-HEK293 cells developed by Codex Corp contain human GnRHR reporter gene, which was stably integrated into HEK 293 cells. The compound activation can be detected by fluorescence intensity via calcium flux assay. This cell line has been used to screen the Tox21 10K compound library to identify GnRHR agonists.
GnRHR-Hek293 cells were dispensed at 1500cells/4uL/well in 1536-well black wall/clear bottom plates using a multidrop dispenser. After the assay plates were incubated at a 37 C/5% CO2 incubator for 18 hours, 4 uL of Calcium Dye Solution was added to each well. The plates were incubated at 37 C for 1 hour. For agonist mode, 23 nL of compounds dissolved in DMSO, positive controls or DMSO only was transferred to the assay plate by a pin tool station. The fluorescence intensity in the plates was measured using FDSS 7000EX kinetic plate reader with a filter set of Ex/Em=480/540 for 3 min at 1 sec intervals. Each test compound was measured at 15 concentrations and in triplicates.
% is set by controls: 0 for no effect and ±100 for the full control effect; potency is the fitted concentration of half-maximal effect.

| SMILES | activity change | Potency |
| --- | --- | --- |
| COP(=S)(Cl)OC | inactive: -0.651% |  |
| O=C(Cl)OCCOC(=O)Cl | inactive: -0.489% |  |
| CC(C)CCCCCCCOP(OCCCCCCCC(C)C)Oc1ccccc1 | inactive: -0.173% |  |
| O=[p+]1oc2ccccc2c2ccccc21 (stereo not given) | inactive: -0.801% |  |
| CN(C(=O)Cc1ccccc1)[C@H]1CC[C@@]2(CCCO2)C[C@@H]1N1CCCC1 | inactive: 0.411% [at 26.4 µM, stronger effect = higher value] |  |
| CCCCOP(OCCCC)OCCCC | inactive: 3.66% |  |
| CCOP(=S)(CC)Sc1ccccc1 (stereo not given) | inactive: 2.36% |  |
| O=[N+]([O-])c1ccc(S(=O)(=O)O)c([N+](=O)[O-])c1 | inactive: 0.22% |  |
| O=C(Cl)Oc1ccccc1 | inactive: 0.0766% |  |
| CCNC(C)Cc1ccc2c(c1)OCO2 (stereo not given) | inactive: 1.15% |  |
| CCC(C)(OOC(C)(C)C)OOC(C)(C)C | inactive: 0.278% [at 11.8 µM, stronger effect = higher value] |  |
| CC(C)OP(=S)(OC(C)C)SCCNS(=O)(=O)c1ccccc1 | inactive: 0.0851% |  |
| O=[N+]([O-])c1ccc([N+](=O)[O-])cc1 | inactive: -1.04% |  |
| Cc1cc([N+](=O)[O-])cc([N+](=O)[O-])c1O |  | inactive |
| O=P(Cl)(Cl)c1ccccc1 | inactive: -0.467% |  |
| CCCCO[P+](=O)OCCCC |  | inactive |
| O=[P+](Oc1ccccc1)Oc1ccccc1 | inactive: -1.45% |  |
| ClP(Cl)c1ccccc1 | inactive: -0.225% |  |
| Cc1cc([N+](=O)[O-])c(O)c([N+](=O)[O-])c1 | inactive: -1.31% |  |
| O=P(Cl)(Oc1ccccc1)Oc1ccccc1 | inactive: 1.49% |  |
| CCCCCCCCCCCCCC[P+](CCCCCC)(CCCCCC)CCCCCC | inactive: 0.649% |  |
| CCOC(=O)Cl | inactive: -2.11% |  |
| O=[As]c1ccccc1 (stereo not given) |  | active: 34.7 µM |
| COC(=O)Cl | inactive: -0.308% |  |
| CN(N=O)C(=N)N[N+](=O)[O-] | inactive: -2.29% |  |
| CCCCC(CC)CO[P+](=O)OCC(CC)CCCC (stereo not given) | inactive: 1.06% |  |
| N#CSc1ccc([N+](=O)[O-])cc1[N+](=O)[O-] | inactive: 16.8% |  |
| NC(=O)Nc1ccc([As](=O)(O)O)cc1 |  | inactive |
| CN(C(=O)Cc1ccc(Cl)c(Cl)c1)[C@H]1CC[C@@]2(CCCO2)C[C@@H]1N1CCCC1 | inactive: 0.0905% [at 26.4 µM, stronger effect = higher value] |  |
| CN(C(=O)Cc1cccc2occc12)[C@H]1CC[C@@]2(CCCO2)C[C@@H]1N1CCCC1 | inactive: 0.323% |  |
